This experiment has as its system Isolated bladder smooth muscle strips. Conditions: read-out: EC50 of agonist, cumulative concentration-response curve (contraction); normal animals; FIG. 2.

Take `CSCC[C@H](NC(=O)[C@H](CC(C)C)NC(=O)CNC(=O)[C@H](Cc1ccccc1)NC(=O)[C@H](Cc1ccccc1)NC(=O)[C@H](CCC(N)=O)NC(=O)[C@H](CCC(N)=O)NC(=O)[C@@H]1CCCN1C(=O)[C@H](CCCCN)NC(=O)[C@@H]1CCCN1C(=O)[C@@H](N)CCCNC(=N)N)C(N)=O` [SP, Substance P]: the EC50 turned out to be 6.5 nM.

The record behind these values is patent US9855256B2, “Cyclooxygenase inhibitor and calcium channel antagonist compositions and methods for use in urological procedures” (Omeros Corporation, priority 2005, dated 2018).
